Tested on: human umbilical vein endothelial cells (HUVECs)
Settings: for IC50: 48 h; for Inhibition of bFGF-induced proliferation of HUVECs (in words): bFGF-stimulated HUVECs, FIG. 2 (peptides), FIG. 5 (mabs)

CC(C)C[C@H](NC(=O)[C@H](C)NC(=O)[C@H](C)NC(=O)[C@H](CC(C)C)NC(=O)[C@H](CCC(N)=O)NC(=O)[C@H](CCC(=O)O)NC(=O)[C@H](CCCNC(=N)N)NC(=O)[C@H](CO)NC(=O)[C@H](CCC(N)=O)NC(=O)[C@H](C)NC(=O)[C@H](CCCNC(=N)N)NC(=O)[C@H](Cc1ccccc1)NC(=O)[C@H](Cc1ccc(O)cc1)NC(=O)[C@H](CCCNC(=N)N)NC(=O)[C@H](CCC(=O)O)NC(=O)[C@H](CCC(=O)O)NC(=O)[C@H](CCC(=O)O)NC(=O)[C@H](C)NC(=O)[C@H](CCC(N)=O)NC(=O)[C@H](CCC(=O)O)NC(=O)[C@H](CCCNC(=N)N)NC(=O)[C@H](CCCCN)NC(=O)CNC(=O)[C@@H](N)Cc1ccccc1)C(=O)O [EP01]
IC50: 210 µM
Inhibition of bFGF-induced proliferation of HUVECs (in words): inhibited bFGF-induced HUVEC proliferation

CC[C@H](C)[C@H](NC(=O)[C@H](C)NC(=O)[C@@H](NC(=O)[C@@H](NC(=O)[C@H](CC(=O)O)NC(=O)[C@H](CCC(N)=O)NC(=O)[C@H](CC(C)C)NC(=O)[C@@H](N)CO)[C@@H](C)CC)[C@@H](C)CC)C(=O)N[C@@H](CC(C)C)C(=O)NCC(=O)N[C@@H](CCSC)C(=O)N[C@@H](CC(=O)O)C(=O)N[C@@H](CCC(=O)O)C(=O)N[C@@H](CC(C)C)C(=O)N[C@@H](CO)C(=O)N[C@@H](CCC(=O)O)C(=O)N[C@@H](CCC(=O)O)C(=O)N[C@@H](CC(=O)O)C(=O)N[C@@H](CCCCN)C(=O)N[C@@H](CC(C)C)C(=O)N[C@H](C(=O)N[C@@H](CS)C(=O)O)[C@@H](C)O [EP03]
IC50: 245 µM
Inhibition of bFGF-induced proliferation of HUVECs (in words): inhibited bFGF-induced HUVEC proliferation

CC[C@H](C)[C@H](NC(=O)[C@H](CCCCN)NC(=O)[C@H](CCCNC(=N)N)NC(=O)[C@H](C)NC(=O)[C@H](CCCNC(=N)N)NC(=O)[C@H](CO)NC(=O)[C@@H](NC(=O)[C@@H](NC(=O)[C@H](CC(C)C)NC(=O)[C@H](CCCCN)NC(=O)[C@H](CC(=O)O)NC(=O)[C@H](CCC(=O)O)NC(=O)[C@H](CCC(=O)O)NC(=O)[C@H](CO)NC(=O)[C@H](CC(C)C)NC(=O)[C@H](CCC(=O)O)NC(=O)[C@H](CC(=O)O)NC(=O)[C@H](CCSC)NC(=O)CN)[C@@H](C)O)C(C)C)C(=O)N[C@@H](CCC(N)=O)C(=O)N[C@@H](CCCNC(=N)N)C(=O)N[C@@H](Cc1ccccc1)C(=O)O [EP02]
IC50: 235 µM
Inhibition of bFGF-induced proliferation of HUVECs (in words): inhibited bFGF-induced HUVEC proliferation

Source: US7381799B2, “Compositions and methods for inhibiting angiogenesis” (Ergon Pharmaceuticals LLC, priority 2000, dated 2008)
